The text below walks through data of ChEMBL document CHEMBL3393026, “A selective small molecule NOP (ORL-1 receptor) partial agonist for the treatment of anxiety” (Bioorg Med Chem Lett, 2015).

Each structure is given as a SMILES string.

Assay [1] relates to HEK293. The assay can be described thus: Selectivity ratio of IC50 for human Mu opioid receptor expressed in HEK293 cells to human ORL1 expressed in HEK293 cells.
For assay [2], the system named is HEK293. The experiment in a line: Selectivity ratio of IC50 for human kappa opioid receptor expressed in HEK293 cells to human ORL1 expressed in HEK293 cells.

For `COc1ccc(CCNC[C@@H](O)CN2CN(c3ccccc3)C3(CCN(CCc4ccccc4-c4cccs4)CC3)C2=O)cc1OC`, in the assay on HEK293 [1], the Ratio IC50 was determined as 20.4.

Consider `COc1ccc(CCOC[C@H](O)CN2CN(c3ccc(F)cc3)C3(CCN(CC4CCCCCCC4)CC3)C2=O)cc1OC`, for which the Ratio IC50 in the assay on HEK293 [1] turned out to be 28.

For the compound `COc1ccc(CCNC[C@H](O)CN2CN(c3ccc(F)cc3)C3(CCN(CC4CCCCCCC4)CC3)C2=O)cc1OC`, the Ratio IC50 worked out at 112 in the assay with HEK293 [1] and 23 with HEK293 [2].

For `CCCCN(Cc1ccccc1)C[C@H](O)CN1CN(c2ccccc2)C2(CCN(CCc3ccccc3-c3cccs3)CC2)C1=O`, the Ratio IC50 in the assay on HEK293 [1] was 0.36.

As to `O=C1N(C[C@H](O)CNCc2cccs2)CN(c2ccccc2)C12CCN(CCc1ccccc1-c1cccs1)CC2`, the Ratio IC50 in the assay with HEK293 [1] stood at 10.

As to `COc1ccc(CNC[C@@H](O)CN2CN(c3ccccc3)C3(CCN(CCc4ccccc4-c4cccs4)CC3)C2=O)cc1`, in the assay with HEK293 [1], the Ratio IC50 amounted to 26.

On to `Cc1cccc(SC[C@H](O)CN2CN(c3ccc(F)cc3)C3(CCN(CC4CCCCCCC4)CC3)C2=O)c1`, for which the Ratio IC50 in the assay on HEK293 [1] was 14.

`O=C1N(C[C@@H](O)CNCc2cccs2)CN(c2ccccc2)C12CCN(CCc1ccccc1-c1cccs1)CC2`: the Ratio IC50 with HEK293 [1] was determined as 0.18.

In the case of `Cc1ccc(CN(C[C@H](O)CN2CN(c3ccc(F)cc3)C3(CCN(CC4CCCCCCC4)CC3)C2=O)C(=O)[C@H](N)C(C)C)cc1`, the Ratio IC50 in the assay with HEK293 [1] was found to be 46.

In the case of `Cc1ccccc1CNC[C@H](O)CN1CN(c2ccccc2)C2(CCN(CCc3ccccc3-c3cccs3)CC2)C1=O`, the Ratio IC50 in the assay with HEK293 [1] stood at 4.9.

With `Cc1ccccc1CNC[C@@H](O)CN1CN(c2ccccc2)C2(CCN(CCc3ccccc3-c3cccs3)CC2)C1=O`, in the assay with HEK293 [1], the Ratio IC50 came to 4.

`CCCCN(Cc1ccccc1)C[C@@H](O)CN1CN(c2ccccc2)C2(CCN(CCc3ccccc3-c3cccs3)CC2)C1=O`: in the assay on HEK293 [1], the Ratio IC50 was 0.28.

For the compound `CCCCN(Cc1ccccc1)C[C@H](O)CN1CN(c2ccc(F)cc2)C2(CCN(CC3CCCCCCC3)CC2)C1=O`, the Ratio IC50 in the assay with HEK293 [1] came to 35; with HEK293 [2] it was 7.

For `COc1ccc(CNC[C@H](O)CN2CN(c3ccccc3)C3(CCN(CCc4ccccc4-c4cccs4)CC3)C2=O)cc1`, the Ratio IC50 in the assay on HEK293 [1] came out at 0.5.

Consider `CC(C)(C)NC[C@@H](O)CN1CN(c2ccccc2)C2(CCN(CCc3ccccc3-c3cccs3)CC2)C1=O`, for which the Ratio IC50 with HEK293 [1] was 1.4.
